From paper PMC3466217, “A Novel Magnetic Nanoparticle Drug Carrier for Enhanced Cancer Chemotherapy” (PLoS ONE, 2012)

Test system: H22 hepatoma cell tumor
Assay: Chemotherapy experiments in H22 tumor-bearing mice (tumor volume, life span, histology)
Settings: day 33 after start of treatment, 5 mg DOX/kg iv three times, no EMF

With COc1cccc2c1C(=O)c1c(O)c3c(c(O)c1C2=O)C[C@@](O)(C(=O)CO)C[C@@H]3O[C@H]1C[C@H](N)[C@H](O)[C@H](C)O1 [DOX, doxorubicin] as the compound, how does the “relative tumor volume (V/V0)” value read?
The value was 14.8±1.64 and 14.8±1.67.

Values joined by “and” are separate entries in the source; they are usually repeats but may differ in a detail not shown here. Equal entries are not always repeated.
